What was measured:
Adenosine receptor A1 = Adenosine receptor A1 (Rattus norvegicus, UniProt P25099); experiment: Binding affinity against adenosine A1 receptor in rat brain membrane preparations using N6-[3H]cyclohexyladenosine as a radioligand; assay type: cell membranes
[1] = target: Adenosine receptor A1 (Rattus norvegicus) (UniProt P25099); conditions: Brain; Membrane
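Wherever PCY is given: radioligand displacement of N6-[3H]cyclohexyladenosine binding in rat brain membranes, PCY computed as the log of 100000 divided by IC50.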

Sequences of proteins named here, by UniProt entry; tags and fusion partners are left off.
UniProt P25099, whole entry: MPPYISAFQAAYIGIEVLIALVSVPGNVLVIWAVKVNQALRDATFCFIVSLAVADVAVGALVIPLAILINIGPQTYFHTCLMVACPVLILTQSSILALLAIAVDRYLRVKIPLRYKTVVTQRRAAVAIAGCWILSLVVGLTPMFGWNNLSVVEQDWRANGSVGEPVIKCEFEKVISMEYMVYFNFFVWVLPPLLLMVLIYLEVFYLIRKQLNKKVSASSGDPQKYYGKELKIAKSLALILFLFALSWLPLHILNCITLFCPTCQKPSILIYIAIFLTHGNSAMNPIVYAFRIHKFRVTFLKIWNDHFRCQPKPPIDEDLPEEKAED

| SMILES | IC50 (Adenosine receptor A1) [nM] | PCY [1] |
| --- | --- | --- |
| COc1cccc(-c2nc3c(=O)n(C)c(=O)n(C)c3[nH]2)c1 | 2 | – |
| Cn1c(=O)c2nc(-c3ccc(Cl)cc3)[nH]c2n(C)c1=O | – | 5.1 |
| Cn1c(=O)c2nc(-c3cccc(N)c3)[nH]c2n(C)c1=O | – | 4 |
| COc1cc(OC)cc(-c2nc3c(=O)n(C)c(=O)n(C)c3[nH]2)c1 | – | 2.3 |
| COc1ccc(-c2nc3c(=O)n(C)c(=O)n(C)c3[nH]2)c(OC)c1 | – | 2.7 |

Now from value to molecule:

| IC50 (Adenosine receptor A1) [nM] | PCY [1] | SMILES |
| --- | --- | --- |
| – | 3.3 | Cn1c(=O)c2nc(-c3cccc([N+](=O)[O-])c3)[nH]c2n(C)c1=O |
| – | 4.1 | Cn1c(=O)c2nc(-c3ccc([N+](=O)[O-])cc3)[nH]c2n(C)c1=O |
| – | 5.1 | Cc1ccc(-c2nc3c(=O)n(C)c(=O)n(C)c3[nH]2)cc1 |
